Measurements reported in ChEMBL document CHEMBL1130618, “A novel and practical route to A-ring enyne synthon for 1 alpha,25-dihydroxyvitamin D3 analogs: synthesis of A-ring diastereomers of 1 alpha,25-dihydroxyvitamin D2 and 3-methyl-1,25-dihydroxyvitamin D3” (1998).

Test system: HL-60
Assay: HL-60 cell differentiation relative to 1-alpha, 25-dihydroxyvitamin D3
Type: functional, Homo sapiens

C=C1/C(=C\C=C2/CCC[C@]3(C)[C@@H]([C@H](C)CCCC(C)(C)O)CC[C@@H]23)C[C@H](O)[C@H](C)[C@@H]1O
Relative potency: 13
